Molecular target: Protein farnesyltransferase (Homo sapiens, UniProt P49354+P49356)
Test: Inhibitory activity against Hras Farnesyltransferase (FPT).
Assay type: protein-complex assay

Compound | IC50 [nM]
NS(=O)(=O)N1CCC(CC(=O)N2CCC([C@H]3c4ncc(Br)cc4CCc4cc(Cl)cc(Br)c43)CC2)CC1 | 3.1
CS(=O)(=O)N1CCC(CC(=O)N2CCC([C@H]3c4ncc(Br)cc4CCc4cc(Cl)cc(Br)c43)CC2)CC1 | 2
CCOC(=O)CNC(=O)N1CCC(CC(=O)N2CCC([C@H]3c4ncc(Br)cc4CCc4cc(Cl)cc(Br)c43)CC2)CC1 | 2
NCC(=O)N1CCC(CC(=O)N2CCC([C@H]3c4ncc(Br)cc4CCc4cc(Cl)cc(Br)c43)CC2)CC1 | 5.3
CNC(=O)N1CCC(CC(=O)N2CCC([C@H]3c4ncc(Br)cc4CCc4cc(Cl)cc(Br)c43)CC2)CC1 | 1.9
O=C(O)CNC(=O)N1CCC(CC(=O)N2CCC([C@H]3c4ncc(Br)cc4CCc4cc(Cl)cc(Br)c43)CC2)CC1 | 0.8

Reference: ChEMBL document CHEMBL1132302, “Identification of pharmacokinetically stable 3, 10-dibromo-8-chlorobenzocycloheptapyridine farnesyl protein transferase inhibitors with potent enzyme and cellular activities” (J Med Chem, 1999)
